Reference: patent publication EP3409671B1, “ISOTHIAZOLE DERIVATIVES AS GPR120 AGONISTS FOR THE TREATMENT OF TYPE II DIABETES” (Janssen Pharmaceutica NV, priority 2014, dated 2015)

Key:
[1] = system: C57bl6 mouse; experiment: C57bl6 mouse OGTT; details: 3mg/kg dosed 30 minutes prior to glucose PO 3g/kg
Description: (§1) Male, C57b1/6J Mice were ordered in at 8 weeks of age from Jackson Labs. Individual mice weighed anywhere in the range of 25-30 grams on study day. The mice were fasted, with removal of food occurring at 7am on the morning of the study. Animals were moved into the room at 10:00am, to give them time to acclimate. Glucose (insulin syringes) was drawn up either the night before or the morning of the study. Glucose was dosed (IP) at 1.5g/kg at 7.5ml/kg (20% glucose straight TEKNOVA, 250ml sterile bottle w/ catalogue number G0525). Test compounds were kept spinning and were only drawn into the syringes prior to study commencement. Animals were bled via tail snip to determine basal glucose levels prior to dosing of treatments. An Ascensia BREEZE Blood Glucose Monitoring System by Bayer (using unique 10-test disks) was used for determining glucose levels. The bleeds started at approximately 12:45pm and dosing started, at 1-minute intervals, immediately after. All groups were dosed 30 minutes prior to glucose administration at a dose volume of 10ml/kg (the dose volume was calculated separately for each individual animal). Thirty minutes after the first dose animals were bled again for a second baseline, or T=0, and immediately dosed with glucose via an i.p. injection. The exact dose volume for glucose was also calculated separately for each individual animal. […]

[2] = system: C57b1/6J Mice; experiment: GPR120 C57bl6 Mouse IPGTT; parameters: unit not given here; details: 10mg/kg dosed 30 minutes prior to glucose IP 1.5g/kg
Description: as §1

## OCCCc1cc(F)c(OCc2c(Cl)nsc2-c2ccc(Cl)cc2)c(F)c1
[1]
  C57 OGTT 3mg/kg: -39
[2]
  C57 IPGTT 10mg/kg: -41
